Ab-14 heavy chain CDR variants: yeast mating affinities

Data: MIT Lincoln Laboratory AlphaSeq set, Engelhart et al. 2022, doi:10.1038/s41597-022-01779-4, as distributed in FLAb.

Target peptide (SARS-CoV-2 spike, HR2 region): PDVDLGDISGINAS

The variants keep the light chain, the linker and the frameworks of Ab-14 (scFv order VH, the linker GGGGSGGGGSGGGGS, VL).
VH: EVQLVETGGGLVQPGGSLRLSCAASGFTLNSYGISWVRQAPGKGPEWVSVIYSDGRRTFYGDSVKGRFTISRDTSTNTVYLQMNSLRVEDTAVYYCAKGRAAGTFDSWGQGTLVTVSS
VL: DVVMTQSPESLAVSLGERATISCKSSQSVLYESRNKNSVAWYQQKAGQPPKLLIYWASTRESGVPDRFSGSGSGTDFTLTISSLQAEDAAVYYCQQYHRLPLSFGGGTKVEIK

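Phage display of a naive human antibody library on the peptide gave the parent. AAYL49 was designed without a model: most single CDR substitutions and a random sample of double and triple ones. In AlphaSeq, yeast of one mating type display the scFv and yeast of the other type display the target. The frequency of each diploid, read from paired DNA barcodes, reflects how well the two displayed proteins bind. Each replicate has its own calibration line, from reference interactions of the BCL2 family. Each pool was mated in three replicate cultures.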

Substitutions are numbered in sequence along the VH above, starting at 1 (not Kabat). This list gathers variants with a substitution at S107 (VH, numbered from residue 1). Kd is apparent (estimated from mating counts) and averaged on the log scale over replicates with a signal. Smaller is tighter. A pair that was not seen in any replicate is written "nd"; this usually means weak binding, but a binder can also be missed. As a blank, each scFv also met three strains without target: over library AAYL49, 15% of these pairings were detected, typically at 11 µM and seldom below 680 nM.

The variant N30E K65I S107R showed nd (0 of 3 replicates). The variant G26H N30F S107P showed 200 µM (1 of 3 replicates). For R57N G103M S107H, the assay gave 66 nM (2 of 3 replicates). The variant S31C V64Y S107L gave 2.4 µM (2 of 3 replicates). For G26M G103V S107R, the assay gave 58 nM (3 of 3 replicates). With S63K G103S S107D the result was nd (0 of 3 replicates). For G26P S107W, the assay gave 190 nM (3 of 3 replicates).

The variant S53F A102V S107R gave nd (0 of 3 replicates). The variant S35E K65L S107L gave nd (0 of 3 replicates). For Y32G Y52T S107Y, the assay gave nd (0 of 3 replicates). The variant G55S G99K S107A gave nd (0 of 3 replicates). The variant F27G S107F showed 9.9 µM (3 of 3 replicates). With V50K S107V the result was nd (0 of 3 replicates). With N30R G33Q S107H the result was 960 µM (1 of 3 replicates).

With G61C D62S S107L the result was 1.3 µM (1 of 3 replicates). The variant Y32M S63K S107R gave nd (0 of 3 replicates). With G33W D62H S107D the result was nd (0 of 3 replicates). With R57N A102Y S107N the result was nd (0 of 3 replicates). The variant I51G Y60A S107N showed nd (0 of 3 replicates). For V50D T58M S107T, the assay gave 26 µM (1 of 3 replicates). With D62I F105D S107N the result was nd (0 of 3 replicates).

The variant N30T F59H S107K gave 19 nM (3 of 3 replicates). For G26H S53F S107E, the assay gave nd (0 of 3 replicates). With I51A R100W S107I the result was nd (0 of 3 replicates). For G26F S63E S107M, the assay gave 5.7 µM (1 of 3 replicates). The variant F27N G33N S107E gave nd (0 of 3 replicates). With I34Y Y60C S107I the result was nd (0 of 3 replicates). For V50Q Y60M S107M, the assay gave 29 µM (1 of 3 replicates).

For T58C S107F, the assay gave nd (0 of 3 replicates). The variant S53K D106I S107G showed nd (0 of 3 replicates). For F27Q S63A S107G, the assay gave 28 µM (1 of 3 replicates). The variant G55S D62G S107T gave 1.6 µM (2 of 3 replicates). The variant I51E D106R S107L gave nd (0 of 3 replicates). For V50W I51P S107G, the assay gave nd (0 of 3 replicates). The variant T28S D62E S107R gave 45 nM (3 of 3 replicates).

The variant R56K T58I S107G showed 29 nM (2 of 3 replicates). The variant F27S S63P S107E gave 910 nM (3 of 3 replicates). With S63E D106H S107F the result was nd (0 of 3 replicates). The variant T28C Y60I S107F gave 2.2 µM (2 of 3 replicates). With R56S K65M S107F the result was nd (0 of 3 replicates). For S35P D62A S107F, the assay gave 92 µM (3 of 3 replicates).

Excerpt, the final 4 entries:

| changes | Kd | detected |
|---|---|---|
| S63E D106H S107F | nd | 0 of 3 |
| T28C Y60I S107F | 2.2 µM | 2 of 3 |
| R56S K65M S107F | nd | 0 of 3 |
| S35P D62A S107F | 92 µM | 3 of 3 |

In this assay the parent's reference entry averaged 4.4 nM; its copy inside this library read 13 µM (one replicate of three).